From PubChem BioAssay AID873 (PCMD, 2007) come the findings set out here.

Sequences of proteins named here, by UniProt entry; tags and fusion partners are left off.
UniProt Q9Y337, whole entry, looked up: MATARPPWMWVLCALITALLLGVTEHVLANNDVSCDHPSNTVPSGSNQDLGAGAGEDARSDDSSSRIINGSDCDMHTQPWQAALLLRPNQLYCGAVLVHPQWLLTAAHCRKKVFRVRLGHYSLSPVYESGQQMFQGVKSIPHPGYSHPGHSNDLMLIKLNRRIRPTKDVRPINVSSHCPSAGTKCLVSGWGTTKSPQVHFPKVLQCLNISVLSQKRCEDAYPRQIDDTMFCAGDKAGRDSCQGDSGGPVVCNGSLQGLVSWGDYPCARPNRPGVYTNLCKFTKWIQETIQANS

By inhibition is commonly meant the change of the read-out against control, counted positive when it falls.

Values joined by “and” are separate entries in the source; they are usually repeats but may differ in a detail not shown here. Equal values may be shown once. Only a part is listed here, and it is no random draw. Active and inactive are the calls of the source.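 The calls were made as follows: active = inhibition of 40% or more; inactive = the rest.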

The test deals with Kallikrein-5 (Homo sapiens) (UniProt Q9Y337). Briefly: inhibition of kallikrein 5 (hK5) activity – biochemical, 1536-well, primary screen (AID 873).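 Also: 0% = enzyme controls without compound and 100% = no-enzyme blanks.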 Conditions: recombinant hK5, fluorogenic AMC substrate cleavage; at 5 µM; hits give high values.
For `O=[As](O)(c1ccccc1Br)c1ccccc1Br`, the inhibition is inactive: -1.02%. `CC(C)/C=N\N=C(\N)N[N+](=O)[O-]`: the inhibition was inactive: -3.7%. Under `CCOP(=O)(Nc1ccc(C)cn1)OCC` stands inactive: 0.2%; under `O=P1(Nc2ccccn2)COc2ccccc2OC1`, inactive: -1.82%. For `CC(C)(C)C(=O)NC(Sc1ncccn1)C(Cl)(Cl)Cl` (stereo not drawn), the inhibition was inactive: 0.15%. Regarding `Clc1n[nH]nc1-c1nn[nH][15n]1`, the inhibition was inactive: 2.42%.

For `O=P1(Nc2ncccn2)COc2ccccc2OC1`, the inhibition was inactive: -15%. With `O=P1(Nc2ccc(Br)cn2)COc2ccccc2OC1`, the inhibition was inactive: -50%.

Take `O=[As](O)(c1cccs1)c1cccs1`: the inhibition was inactive: -0.68%.

With `Cc1ccc(OCC(=O)OC2CN3CCC2CC3)cc1` (stereo not drawn), the inhibition is inactive: -23.4%. For `Nc1cccc([As](=O)(O)c2ccccc2)c1`, the inhibition is inactive: -1.53%. Take `CC1CCC(C(C)C)C(OP(=O)(Nc2ccccn2)c2ccccc2)C1` (stereo not drawn): the inhibition is inactive: 14.1%. Under `Cc1nn(-c2ccccc2)c2c1P(=O)(N1CCOCC1)N(C)C(c1ccccc1)=N2` (stereo not drawn) stands inactive: 3.25%; under `O=C(/C=C/c1ccccc1)OC1CN2CCC1CC2` (stereo not drawn), inactive: 3.14%. Under `CN(C)C1(CNC(=O)c2ccc(S(C)(=O)=O)cc2)CCCCC1` stands inactive: -6.07%.

As for `NC(=O)Nc1ccc([As](=O)(O)O)cc1`, the inhibition was inactive: 0.11%. Under `O=[N+]([O-])c1ccc2c(c1)nnn2O` stands inactive: 0.95%; under `CN(C(=O)Cc1ccccc1)[C@@H]1CC[C@]2(CCCO2)C[C@H]1N1CCCC1`, inactive: 2.72%.

For `CCOP1(=S)c2c(C)nn(CCC#N)c2N=C(c2ccc(F)cc2)N1C` (stereo not drawn), the inhibition was inactive: -20.2%. With `CS(=O)(=O)c1cc([N+](=O)[O-])c2no[n+]([O-])c2c1`, the inhibition was inactive: -5.95%. On to `O=P(Nc1nccs1)(c1ccccc1)c1nc2ccccc2s1` (stereo not drawn), for which the inhibition is inactive: 4.25%. On to `O=P(Nc1nccs1)(Oc1ccccc1)Oc1ccccc1`, for which the inhibition is inactive: -3.24%. Under `CCOP1(=S)c2c(C)nn(CCC#N)c2N=C(c2ccccc2F)N1C` (stereo not drawn) stands inactive: 2.95%.

With `Nc1ccccc1[As](=O)(O)c1ccccc1`, the inhibition was inactive: 1.12%. Under `O=C(O)COc1ccc([As](=O)(O)O)cc1[N+](=O)[O-]` stands inactive: -2.69%; under `CCCOP(=S)(Nc1nc(N)cc(=O)[nH]1)OCCC`, inactive: -2.12%; under `Nc1cccc2c([As](=O)(O)O)cccc12`, inactive: -5.78%. Under `Cc1ccc(NCCc2c([N+](=O)[O-])cc([N+](=O)[O-])cc2[N+](=O)[O-])cc1` stands inactive: -5.12%. As to `CCOP(=O)(Nc1cccc2ccccc12)OCC`, the inhibition is inactive: -9.51%. Take `COc1cc(C2NCCC3(OCCO3)C2(C)C)cc(OC)c1OC` (stereo not drawn): the inhibition is inactive: -9.85%. Take `COc1cc(C(=O)NCC2(N3CCOCC3)CCCCC2)cc(Cl)c1OC(C)C`: the inhibition was inactive: -1.88%. Under `O=[As](O)(O)c1cccnc1` stands inactive: 5.52%; under `O=C(OC1CN2CCC1CC2)c1ccc(Cl)cc1` (stereo not drawn), inactive: -0.62%. For `O=[As](O)(c1cccc(O)c1)c1cccc(O)c1`, the inhibition was inactive: -4.26%. As for `Cc1cccc(OCC(=O)OC2CN3CCC2CC3)c1` (stereo not drawn), the inhibition is inactive: -13.3%. Regarding `COc1ccc(N/C(=N/P(=O)(N2CCOCC2)N2CCOCC2)N2CCOCC2)cc1`, the inhibition was inactive: -0.87%. Under `Cc1cc(=O)[nH]c(N[N+](=O)[O-])n1` stands inactive: -3.2%; under `O=C(OC1CN2CCC1CC2)C12CC3CC(CC(C3)C1)C2` (stereo not drawn), inactive: -1.44%. Under `Cc1c2c(nc3ccccc13)SC(C(Cl)Cl)C2` (stereo not drawn) stands inactive: -14.9%; under `COc1cc(I)ccc1[As](=O)(O)O`, inactive: -3.46%; under `COc1ccc2nc(NP(=O)(c3ccccc3)c3ccccc3)sc2c1`, inactive: -3.64%. In the case of `CC(C)c1ccc(OP(=O)(Nc2ccccn2)Oc2ccccc2F)cc1` (stereo not drawn), the inhibition was inactive: -2.46%. Under `ClCCSc1nnc(-c2cccnc2)o1` stands inactive: -5.89%; under `O=[N+]([O-])c1cc([N+](=O)[O-])c(-c2ccn[nH]2)s1`, inactive: -10.7%; under `CCN(CC)C(=S)SC(NC=O)C(Cl)(Cl)Cl` (stereo not drawn), inactive: -0.38%.

For the compound `CC(C)NC(=O)NP(=O)(Oc1ccccc1)Oc1ccccc1`, the inhibition was inactive: 1.08%. Under `C[As](=O)(O)c1cccc(C(=O)O)c1` stands inactive: 0.63%; under `O=[As](O)(c1ccc(O)cc1)c1ccccc1O`, inactive: 11.7%. `Cc1ccc2nc3c(c(C)c2c1)CC(C(Cl)Cl)S3` (stereo not drawn): the inhibition is inactive: 4.09%. Under `Cc1ccc(OP(=O)(Nc2ccc([N+](=O)[O-])cn2)Oc2ccc(C)cc2)cc1` stands inactive: 23%; under `CCOC(=O)Nc1cccc([As](=O)(O)O)c1`, inactive: 14.8%. Turning to `O=[N+]([O-])c1ccc(Nc2ccc(Oc3ccc([N+](=O)[O-])cc3[N+](=O)[O-])cc2)c([N+](=O)[O-])c1`, the inhibition is inactive: -5.43%. For the compound `O=P(Nc1ccccn1)(c1cccc2ccccc12)c1cccc2ccccc12`, the inhibition is inactive: -20.4%. For the compound `Cc1cc(SC(NC=O)C(Cl)(Cl)Cl)ncn1` (stereo not drawn), the inhibition was inactive: 2.93%. With `CCOC(=O)Nc1ccc([As](=O)(O)O)c(O)c1`, the inhibition was inactive: 5.86%.

With `Cc1cc(SC(NC(=O)c2ccccc2)C(Cl)(Cl)Cl)nc(C(C)C)n1` (stereo not drawn), the inhibition was inactive: -0.42%.

Consider `CCOC(=O)c1ccc(NC(=O)C(C)(CCl)SC)cc1` (stereo not drawn), for which the inhibition was inactive: 1.68%. For the compound `CCC(C)N(CC(C)C)C(=S)SC(NC(C)=O)C(Cl)(Cl)Cl` (stereo not drawn), the inhibition is inactive: 4.2%. Under `COP1(=S)c2c(C)nn(CCC#N)c2N=C(c2ccc(F)cc2)N1C` (stereo not drawn) stands inactive: 6.85%; under `O=C(COc1ccccc1)OC1CN2CCC1CC2` (stereo not drawn), inactive: 0.45%; under `C[N+]1=C2C=CC=CC=C2SC12C([N+](=O)[O-])=CC([N+](=O)[O-])=C[C-]2[N+](=O)[O-]` (stereo not drawn), inactive: 4.31%. Under `Nc1ccc([As](=O)(O)c2ccc(N)cc2)cc1` stands inactive: 5.67%; under `CCN(/C(=N/P(=O)(N1CCOCC1)N1CCOCC1)N1CCOCC1)c1ccc(OC)cc1`, inactive: -3.58%. Under `CN(C)C(=O)OCCc1n(C)cc[n+]1C` stands inactive: -13.4%. As for `CC(C)=N/N=C(\N)N[N+](=O)[O-]`, the inhibition was inactive: -1.41%. For `CC1CCN(C(=O)Oc2c(Cl)cc(Cl)c3cccnc23)CC1`, the inhibition is inactive: -0.98%.

On to `COc1ccc(C2=NCC(CBr)S2)cc1` (stereo not drawn), for which the inhibition was inactive: 2.07%. Under `O=[N+]([O-])c1cccc2n[nH]nc12` stands inactive: -1.38%. Turning to `CC(=O)N1C2C3N(C(C)=O)C1C1N(C(C)=O)C(C(N1C(C)=O)N3C(C)=O)N2C(C)=O`, the inhibition was inactive: -5.17%. With `CCc1nc2c(n1)c1c(non1O)c1c2no[n+]1[O-]`, the inhibition is inactive: 0.35%.

Turning to `O=[N+]([O-])c1cc([N+](=O)[O-])c(CCNc2ccccc2)c([N+](=O)[O-])c1`, the inhibition was inactive: -10.6%. Under `Cc1ccc(NP(=O)(Oc2ccccc2)Oc2ccccc2)nc1` stands inactive: -6.22%; under `CC(C)(C)C(=O)NC(Sc1ccncn1)C(Cl)(Cl)Cl` (stereo not drawn), inactive: -2%. In the case of `O=[N+]([O-])c1ncn(CCn2ncnc2[N+](=O)[O-])n1`, the inhibition is inactive: -1.2%. Under `O=[N+]([O-])c1cccc(NC2=NCC(CBr)S2)c1` (stereo not drawn) stands inactive: 0.81%; under `O=C(O)CNc1ccc([As](=O)(O)O)cc1`, inactive: -14.8%.

Consider `O=C(Nc1cc([As](=O)(O)O)ccc1O)c1ccccc1`, for which the inhibition is inactive: -11.7%. Under `CCN(N=Nc1nonc1N)c1nonc1N` stands inactive: -2.1%; under `Nc1cccc2ccc([As](=O)(O)O)cc12`, inactive: -10.3%. As for `O=C(O)c1ccccc1[As](=O)(O)O`, the inhibition was inactive: 3.02%. Under `CC(=O)Nc1ccc([As](=O)(O)O)cc1` stands inactive: 3.42%; under `O=P(Nc1nc2ccc(Cl)cc2s1)(c1ccccc1)c1ccccc1`, inactive: -21.2%; under `Cc1ccc(NP(=O)(Oc2ccccc2F)Oc2ccccc2F)nc1`, inactive: 30.4%. Consider `CCOP(=O)(Nc1ccccc1)OCC`, for which the inhibition was inactive: -3.39% and inactive: -2.61%. Under `Cc1cc(SC(NC(=O)c2ccc(F)cc2)C(Cl)(Cl)Cl)ncn1` (stereo not drawn) stands inactive: -5.82%; under `CC(C)CC(=O)NC(Sc1ccc(Cl)cc1)C(Cl)(Cl)Cl` (stereo not drawn), inactive: -22.6%; under `Nc1cc(N)c2nonc2c1[N+](=O)[O-]`, inactive: 4.89%. Under `Cc1c2non([O-])c-2c(C)[n+](=O)[n+]1[O-]` stands inactive: 23.6%; under `O=C(NC(Sc1ccncn1)C(Cl)(Cl)Cl)c1ccccc1` (stereo not drawn), inactive: -6.67%.

For `Oc1ccccc1CNc1ccccn1`, the inhibition is inactive: 5.96%. Under `NC(=O)c1cc([N+](=O)[O-])cc([N+](=O)[O-])c1N` stands inactive: -5.62%; under `Cc1ccc(N/C(=N/P(=O)(N2CCOCC2)N2CCOCC2)N2CCOCC2)cc1`, inactive: 1.6%. Under `Cc1ccc(OP(=O)(Nc2nccs2)Oc2ccc(C)cc2)cc1` stands inactive: 2.87%; under `COc1ccccc1OP(=O)(Nc1ccc(C)cn1)Oc1ccccc1OC`, inactive: 0.64%; under `Clc1ccc(Cl)c(NC2=NCC(CBr)S2)c1` (stereo not drawn), inactive: 11.4%. Under `CN1CCCC(OC(=O)C(c2ccccc2)c2ccccc2)C1` (stereo not drawn) stands inactive: -7.37%; under `C[C@@H]1C=CCP(=O)(Oc2ccccc2)O1` (stereo partly drawn), inactive: 0.06%. For `C[C@H]1OP(=O)(Oc2ccccc2)C[C@@H]2O[C@@H]21` (stereo partly drawn), the inhibition was inactive: -0.96%. Under `CC(=O)Nc1ccc(Oc2c([N+](=O)[O-])cc([N+](=O)[O-])cc2[N+](=O)[O-])cc1` stands inactive: -4.95%; under `CC(=O)Nc1ccc([As](=O)(O)O)c(O)c1`, inactive: -1.28%; under `CCOc1ccc(C2=NCC(CBr)S2)cc1` (stereo not drawn), inactive: -0.17%. Under `O=P1(Nc2nc3ccc(Cl)cc3s2)COc2ccccc2O1` (stereo not drawn) stands inactive: -8.3%. For the compound `CC(C)(C)C(=O)NC(Sc1ccccc1)C(Cl)(Cl)Cl` (stereo not drawn), the inhibition is inactive: -11.8%.
